The numbers were not newly measured in publication PMC12141447, which cites them from elsewhere.

The chains behind the UniProt entries cited, without tags or fusion partners. Where a name states a change or a piece, a line headed by the entry shows the natural chain unless it says otherwise.
UniProt O14490: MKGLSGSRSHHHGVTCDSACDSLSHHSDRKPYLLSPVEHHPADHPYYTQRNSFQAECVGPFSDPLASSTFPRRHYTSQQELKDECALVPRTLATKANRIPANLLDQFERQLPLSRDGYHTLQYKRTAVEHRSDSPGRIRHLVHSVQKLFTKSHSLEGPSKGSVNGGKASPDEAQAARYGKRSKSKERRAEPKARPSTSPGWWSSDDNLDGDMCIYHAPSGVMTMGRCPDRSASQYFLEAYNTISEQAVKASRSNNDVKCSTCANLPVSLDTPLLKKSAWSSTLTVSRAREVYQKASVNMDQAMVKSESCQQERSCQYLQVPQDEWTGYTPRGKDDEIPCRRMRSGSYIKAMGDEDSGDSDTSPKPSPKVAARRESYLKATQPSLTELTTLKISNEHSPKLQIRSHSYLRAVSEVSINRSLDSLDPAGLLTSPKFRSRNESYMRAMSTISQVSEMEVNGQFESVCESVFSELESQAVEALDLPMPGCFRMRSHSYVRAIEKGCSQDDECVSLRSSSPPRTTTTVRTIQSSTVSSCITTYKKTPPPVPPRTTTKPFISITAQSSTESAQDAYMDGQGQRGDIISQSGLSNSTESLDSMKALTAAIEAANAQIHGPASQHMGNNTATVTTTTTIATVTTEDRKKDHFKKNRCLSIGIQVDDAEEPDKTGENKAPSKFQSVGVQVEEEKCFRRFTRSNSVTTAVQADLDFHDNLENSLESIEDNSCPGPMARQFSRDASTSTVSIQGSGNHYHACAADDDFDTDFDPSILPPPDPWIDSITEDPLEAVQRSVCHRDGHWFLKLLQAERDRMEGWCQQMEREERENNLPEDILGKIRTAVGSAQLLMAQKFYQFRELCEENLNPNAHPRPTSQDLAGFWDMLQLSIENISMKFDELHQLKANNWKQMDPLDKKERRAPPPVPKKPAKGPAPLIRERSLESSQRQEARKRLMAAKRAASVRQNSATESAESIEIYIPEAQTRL
UniProt P78352, whole entry: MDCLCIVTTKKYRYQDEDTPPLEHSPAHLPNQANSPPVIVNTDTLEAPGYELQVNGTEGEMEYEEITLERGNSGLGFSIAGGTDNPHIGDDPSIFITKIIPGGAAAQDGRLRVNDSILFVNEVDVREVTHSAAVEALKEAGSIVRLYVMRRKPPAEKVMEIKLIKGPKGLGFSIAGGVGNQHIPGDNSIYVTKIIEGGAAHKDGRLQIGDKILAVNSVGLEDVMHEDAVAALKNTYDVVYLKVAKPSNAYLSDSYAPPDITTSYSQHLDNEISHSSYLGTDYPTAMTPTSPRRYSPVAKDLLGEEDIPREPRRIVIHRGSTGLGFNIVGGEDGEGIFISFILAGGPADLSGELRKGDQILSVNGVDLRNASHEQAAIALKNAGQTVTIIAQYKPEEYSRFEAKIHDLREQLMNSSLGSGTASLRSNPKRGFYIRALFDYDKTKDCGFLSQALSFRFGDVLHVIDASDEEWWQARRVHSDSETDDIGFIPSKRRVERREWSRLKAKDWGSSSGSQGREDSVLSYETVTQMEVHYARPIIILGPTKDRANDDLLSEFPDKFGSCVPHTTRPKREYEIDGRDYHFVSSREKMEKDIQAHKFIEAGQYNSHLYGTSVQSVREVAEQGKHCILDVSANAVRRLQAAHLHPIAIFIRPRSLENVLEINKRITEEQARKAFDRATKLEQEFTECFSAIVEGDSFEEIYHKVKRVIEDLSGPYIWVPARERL

The series has as its target GKAP (UniProt O14490).

One may read the Kd as the equilibrium constant for the complex coming apart. Take PSD-95 (from UniProt P78352): the Kd is 176 µM.
